# In PubChem BioAssay AID1851 (National Center for Advancing Translational Sciences (NCATS), 2009):
# By UniProt entry, the sequences of proteins in these tests, tags left out.
# UniProt P11712, whole entry, looked up: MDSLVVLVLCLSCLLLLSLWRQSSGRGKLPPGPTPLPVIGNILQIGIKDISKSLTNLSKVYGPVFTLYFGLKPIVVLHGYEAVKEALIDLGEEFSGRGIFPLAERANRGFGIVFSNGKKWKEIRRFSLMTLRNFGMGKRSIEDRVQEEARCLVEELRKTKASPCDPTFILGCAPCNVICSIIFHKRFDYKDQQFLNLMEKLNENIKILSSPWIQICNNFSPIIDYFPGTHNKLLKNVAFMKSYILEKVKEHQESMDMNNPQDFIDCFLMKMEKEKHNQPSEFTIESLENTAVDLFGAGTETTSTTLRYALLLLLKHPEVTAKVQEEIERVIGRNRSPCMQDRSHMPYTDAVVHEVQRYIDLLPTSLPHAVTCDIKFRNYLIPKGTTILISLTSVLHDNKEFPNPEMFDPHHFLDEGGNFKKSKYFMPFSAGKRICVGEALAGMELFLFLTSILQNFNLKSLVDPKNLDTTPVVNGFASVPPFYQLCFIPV
# This is a selection; strong and weak results do not stand in their true shares. Results filed as inconclusive are left out. Where a structure was tested more than once in an assay, its records may differ in their call. Active and inactive are the calls of the source. The call rests on the fitted dose curve; in most records, active means well fitted curve in the direction sought with a large enough effect; inconclusive means small, poorly fitted or top-dose-only effect, or effect the other way; inactive means no such curve, though single readings can be large or run the other way.
# Target: Cytochrome P450 2C9 (Homo sapiens) (UniProt P11712)
# Assay: Cytochrome panel assay with activity outcomes
# Settings: recombinant CYP, pro-luciferin dealkylation, luminescence; p450-cyp2c9
row,Structure (SMILES),AC50
1,O=c1c(O)c(-c2ccc(O)c(O)c2)oc2cc(O)cc(O)c12,active: 1000 nM
